Read-outs that look alike come from different tables or passages of the source.
How the values were obtained:
[1] = HLM; for Percentage turnover of test compounds (percent remaining): 10 μM, +NADPH
[2] = Metabolic stability and noribogaine formation in rat liver microsomes (RLM); settings: for Percentage turnover of test compounds (percent remaining): 10 μM, +NADPH
[3] = Plasma pharmacokinetics and brain distribution in male Wistar rats after a single intraperitoneal dose
[4] = Buffer control for chemical instability in the incubation buffer; settings: Kphos buffer pH 7.4, 37° C., no microsomes, minus NADPH
[5] = 0.08 h after ibogaine 40 mg/kg i.p.
[6] = 0.25 h after ibogaine 40 mg/kg i.p.
[7] = 0.5 h after ibogaine 40 mg/kg i.p.
[8] = 1 h after ibogaine 40 mg/kg i.p.
[9] = 2 h after ibogaine 40 mg/kg i.p.
[10] = 3 h after ibogaine 40 mg/kg i.p.
[11] = brain, analyte after ibogaine 40 mg/kg i.p.
[12] = plasma, analyte after ibogaine 40 mg/kg i.p.

## Ibogaine [reference compound]
[1]
  CLh, int: 7 mL/min/kg
  t1/2: >60 min
[1]; 0 min
  Percentage turnover of test compounds (percent remaining): 100%
[1]; 15 min
  Percentage turnover of test compounds (percent remaining): 98%
[1]; 30 min
  Percentage turnover of test compounds (percent remaining): 94%
[1]; 60 min
  Percentage turnover of test compounds (percent remaining): 81%
[1]; summary
  % Remaining at 60 min (+NADPH): 81%
[1]; without NADPH
  % Remaining at 60 min (−NADPH): 98%
[2]
  CLh, int: 306 mL/min/kg
  t1/2: 8 min
[2]; 0 min
  Percentage turnover of test compounds (percent remaining): 100%
[2]; 5 min
  Percentage turnover of test compounds (percent remaining): 86%
[2]; 15 min
  Percentage turnover of test compounds (percent remaining): 56%
[2]; 30 min
  Percentage turnover of test compounds (percent remaining): 23%
[2]; 60 min
  Percentage turnover of test compounds (percent remaining): 1%
[2]; summary
  % Remaining at 60 min (+NADPH): 1%
[3]; [5]
  Mean brain concentration: 24369 ng/g
  Mean plasma concentration: 1545 ng/mL
[3]; [6]
  Mean brain concentration: 25902 ng/g
  Mean plasma concentration: 1269 ng/mL
[3]; [7]
  Mean brain concentration: 10946 ng/g
  Mean plasma concentration: 987 ng/mL
[3]; [8]
  Mean brain concentration: 7013 ng/g
  Mean plasma concentration: 769 ng/mL
[3]; [9]
  Mean brain concentration: 4778 ng/g
  Mean plasma concentration: 530 ng/mL
[3]; [10]
  Mean brain concentration: 3899 ng/g
  Mean plasma concentration: 404 ng/mL
[3]; [11]
  AUClast: 24577.92 ng·h/g
  Tmax: 15 min
[3]; [12]
  AUClast: 2138.81 ng·h/mL
  Cmax: 1545.13 ng/mL
  Tmax: 4.8 min
[4]
  % Remaining at 60 min (Buffer): 103%

From US12564597B2 (priority 2020, dated 2026)
